Test results taken from US9421272B2, “Nanocarrier compositions and methods” (RUTGERS, THE STATE UNIVERSITY OF NEW JERSEY, priority 2009, dated 2016).

test: Solubility of peptidic cores in water

SMILES	solubility in water
CC(=O)N[C@@H](CCCCN)C(=O)NCCC(=O)NCCC(=O)N[C@@H](CCCCN)C(=O)NCCC(=O)NCCC(=O)N[C@@H](CSSc1ccccn1)C(N)=O	sparingly soluble
CC(C)(C)SSC[C@H](NC(=O)OCC1c2ccccc2-c2ccccc21)C(=O)NCCC(=O)N[C@@H](CCCCN)C(=O)NCCC(=O)N[C@@H](CCCCN)C(=O)NCCC(=O)N[C@@H](CCCCN)C(=O)NCCC(=O)N[C@@H](CCCCN)C(=O)NCCC(=O)N[C@@H](CCCCN)C(=O)NCCC(=O)N[C@@H](CCCCN)C(N)=O	freely soluble
CC(=O)N[C@@H](CCCCN)C(=O)NCCC(=O)NCCC(=O)N[C@@H](CCCCN)C(=O)NCCC(=O)NCCC(=O)N[C@@H](CCCCN)C(=O)NCCC(=O)NCCC(=O)N[C@@H](CCCCN)C(=O)NCCC(=O)NCCC(=O)N[C@@H](CSSc1ccccn1)C(N)=O	freely soluble
